# Bioassay records: PubChem BioAssay, several laboratories
# In the library only some 2.3% were active in any assay of this set; here they are far more common.
# MC4R antagonist = human MC4R antagonism in cAMP assay; MC4R-expressing cells, MTII-stimulated cAMP, LANCE TR-FRET; inhibition, % at 6.5 µM; 360,000 compounds, 0.48% hits;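 active means inhibition above its plate's cutoff, the mean of tested wells on that plate plus 3 SD, cut at about 29% in these data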
#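 material = U2OS cells stably expressing human melanocortin 4 receptor (MC4R) | also added = Melanotan II challenge | dosing = single nominal compound dose of 6.5 µM | detection = TR-FRET with Eu-cAMP and labeled anti-cAMP, 671 nm | replication = singlicate | timing = compound 30 min, challenge 1 h, detection 1 h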
# MC4R ag barr = agonists of human melanocortin 4 receptor (MC4R) beta-arrestin. P32245. U2OS MC4R beta-arrestin complementation, luminescence; percent of melanotan II response, DMSO zero. activation, % at 8.9 µM. 360,000 compounds, 0.98% hits. AID 540308;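 active means activation above a per-plate cutoff, the mean activation of sample wells on that plate plus 3 SD, cut at about 8% in these data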
# CendR NRP1 mod = modulators of CendR peptide binding to human neuropilin-1 | FAM-RPARPAR peptide binding to NRP-1, fluorescence polarization | inhibition, % at 25 µM | 360,000 compounds, 0.85% hits | AID 602438;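 active means inhibition or corrected inhibition above about 18%, plus a signal ratio from 0.5 to 1.5, limit read from the data, passing the limit was not always enough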
# UUG fidelity = yeast start codon fidelity modulation; AID 602363; activity score, % at 18.7 µM; S. cerevisiae UUG-firefly luciferase reporter, luminescence/redox ratio; 0.13% of 350,000 active;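 active means replicate mean at a twofold rise or more, about +100% in these data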;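 further: firefly luciferase made from a UUG start codon reports start codon fidelity; reporter light over untreated wells divided by growth signal over untreated wells; some hits fall short of that in this replicate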
# ASAP1 inh = blocks human ASAP1-stimulated Arf1 GTP hydrolysis | GDP FP detection | 360,000 compounds, 0.19% hits | inhibition, % at 16.5 µM; in the data active means inhibition above about 25%
# ARFGAP1 inhibitor = inhibitors of rat ARFGAP1 | inhibition, % at 16.5 µM | AID 651572 | Arfgap1-stimulated ARF1 GTP hydrolysis, GDP FP detection | 360,000 compounds, 0.26% hits;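 active means inhibition above a per-plate limit, mean inhibition of low control wells plus 3 SD, cut at about 25% in these data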
#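 Material – truncated rat Arfgap1 GAP domain · Buffer or medium – HEPES-based buffer, pH 7.5 · Reagent – human ARF1(Δ1-17)-GTP substrate · Dosing – 16.5 µM single point, 1.26% DMSO · Schedule – GTP hydrolysis reaction 2 h at 25 °C · Technique – GDP detection by fluorescence polarization · Benchmarks – No-Arfgap1 wells (100%) versus DMSO full-reaction wells (0%) · Repeats – single replicate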
# U2OS cAMP counter = U2OS forskolin cAMP inhibition counter-screen; shares compounds with MC4R antagonist; parental U2OS, LANCE TR-FRET; inhibition, % at 6.5 µM; 1,600 compounds, 26% hits;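 active means mean inhibition over triplicates above the low-control well mean plus 3 SD, set per campaign, cut at about 13% in these data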;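 further: signal is single emission at 671 nm which falls as cellular cAMP rises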
# MC4R cAMP antag = human MC4R cAMP antagonism confirmation; shares compounds with MC4R antagonist; MC4R-expressing cells, MTII-stimulated cAMP, TR-FRET; inhibition, % at 6.5 µM; 1,600 compounds, 27% hits; in the data active means inhibition above about 29%
# MC4R barr ag = human MC4R beta-arrestin agonism confirmation | shares compounds with MC4R ag barr | U2OS MC4R beta-arrestin recruitment, luminescence; scaled DMSO 0%, Melanotan II 100% | activation, % at 8.9 µM | 2,400 compounds, 31% hits;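 active means mean activation across replicates above the hit cutoff set in the earlier primary screen, cut at about 8% in these data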
# MOR DOR agonist = activates mu-delta opioid heterodimer, MC4R agonist counter-screen; shares compounds with MC4R ag barr; U2OS PathHunter beta-arrestin, beta-gal luminescence; percent of deltorphin B response, DMSO zero; activation, % at 9.2 µM; 2,400 compounds, 5.8% hits;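 active means mean activation across replicates exceeds the hit threshold derived in the earlier primary screen, cut at about 18% in these data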
# ARFGAP1 inh conf = rat ARFGAP1 inhibition, confirmed; 890 compounds, 30% hits; inhibition, % at 16.5 µM; shares compounds with ARFGAP1 inhibitor; ARFGAP1-stimulated ARF1 GTP hydrolysis, GDP tracer FP;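 active means average inhibition over triplicates above the hit cutoff set in the earlier primary screen, cut at about 25% in these data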
# Hits are given with their value; n = inactive; x = no result given.
SMILES,MC4R antagonist,MC4R ag barr,CendR NRP1 mod,UUG fidelity,ASAP1 inh,ARFGAP1 inhibitor,U2OS cAMP counter,MC4R cAMP antag,others
CC12CCC3C(CC=C4CC5(CCC43C)OCCO5)C1CCC2=O (stereo unspecified),30,n,n,n,n,n,n,n,
C[C@]12CC[C@H](OS(=O)(=O)O)CC1=CC[C@@H]1[C@@H]2CC[C@]2(C)C(=O)CC[C@@H]12,n,n,n,n,n,n,x,x,
O=C(Cc1ccccn1)N1CCCCN2[C@@H](CO)[C@H](c3ccc(-c4ccccc4)cc3)[C@@H]2C1,x,x,x,n,x,x,x,x,
Cc1ccc(Cn2nc(C)c(C=O)c2Cl)cc1,31,n,n,x,n,n,n,n,
COc1cccc(-c2ccc([C@@H]3[C@H](CO)N4CCCCN(C(=O)Cc5ccncc5)C[C@@H]34)cc2)c1,x,x,x,n,x,x,x,x,
O=C(O)[C@@H]1[C@@H](CO)[C@@H]2Cn3c(ccc(C4=CCCC4)c3=O)[C@H]1N2C(=O)Cc1ccccn1,x,x,x,n,x,x,x,x,
Cc1cc([N+](=O)[O-])c2ccccc2[n+]1[O-],31,n,n,x,x,x,n,31,
Cc1ccccc1[N+](=O)[O-],n,n,n,n,n,n,x,x,
Cc1ccccc1N1C(=O)NC(=O)/C(=C\c2cnn(-c3ccccc3)c2)C1=O,41,n,n,x,n,n,14,n,
COC(=O)[C@H]1[C@H](CO)[C@H]2Cn3c(ccc(-c4ccccc4)c3=O)[C@@H]1N2C(=O)c1ccccc1F,x,x,x,n,x,x,x,x,
O=C1NC(=O)C(=Cc2ccc(Sc3ccccc3)o2)C(=O)N1,n,n,n,n,n,n,x,x,
O=C1NC(=O)C(=Cc2ccc(-c3ccc(Cl)cc3)o2)C(=O)N1,44,n,n,n,x,x,41,68,
Cc1ccc(/C=C2\C(=O)NC(=O)N(CCc3ccc(F)cc3)C2=O)o1,n,n,n,x,n,n,x,x,
O=C1NC(=O)C(=Cc2ccc(-c3ccc(F)cc3O)o2)C(=O)N1,53,n,n,n,n,n,13,29,
O=C(Cc1ccccc1)N1CCCCN2[C@@H](CO)[C@H](c3ccc(C#CC4(O)CCCC4)cc3)[C@@H]2C1,x,x,x,n,x,x,x,x,
O=C1NC(=O)N(Cc2ccc(F)cc2)C(=O)/C1=C/c1cccs1,68,n,n,x,n,n,n,n,
O=C1NC(=O)N(Cc2ccccc2Cl)C(=O)/C1=C/c1cccs1,36,n,n,n,n,n,16,30,
Cc1cc(/C=C2\C(=O)NC(=O)N(Cc3ccco3)C2=O)c(C)n1-c1ccc(O)cc1,30,n,n,n,n,n,n,n,
Clc1ccc(C(c2ccc(Cl)cc2)n2cc[n+](CC(OCc3ccc(Cl)cc3Cl)c3ccc(Cl)cc3Cl)c2)cc1 (stereo unspecified),61,n,n,n,n,28,20,71,ARFGAP1 inh conf=81
N#Cc1ccc(-c2ccc([C@@H]3[C@H]4CN(C(=O)Cc5ccccc5)CCCCN4[C@H]3CO)cc2)cc1,x,x,x,n,x,x,x,x,
CC(C)CCNC(=O)c1c(N)n(Cc2ccc3c(c2)OCO3)c2nc3ccccc3nc12,n,13,n,x,n,n,x,x,MC4R barr ag=8.4;MOR DOR agonist=n
CC(C)CNC(=O)c1c(N)n(Cc2ccc3c(c2)OCO3)c2nc3ccccc3nc12,n,11,n,n,n,n,x,x,MC4R barr ag=9.2;MOR DOR agonist=n
